Earlier results, collected in paper PMC11604869, “Stereoselective block of the hERG potassium channel by the Class Ia antiarrhythmic drug disopyramide” (Cellular and Molecular Life Sciences: CMLS, 2024).

Molecular target: ITO
Parameters: method as in PMID 10411557
Conditions: read-out: KD for ITO inhibition

In the case of `CC(C)N(CCC(C(N)=O)(c1ccccc1)c1ccccn1)C(C)C` (racemic) [racemic disopyramide, 4-(diisopropylamino)−2-phenyl-2-(pyridin-2-yl) butanamide], the Kd is given as 259 µM.
